This is a selection; strong and weak results do not stand in their true shares. The source made the active and inactive calls.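 Rule for the calls: active = mean inhibition across four replicates of at least 40 percent at the single tested concentration; inactive = the rest.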

This experiment in a line: HIF-2a driven luciferase blockers, single dose – luminescence, 786-0 RCC cells, confirmation (AID 651580). The conditions noted are these: HIF-2a luciferase reporter luminescence, overnight, at 18.8 µM, active compounds read high. Background: Reporter assays use an easily measured gene product as a stand-in for the process of interest.
`CCCCCCCCCCCCCCCC1C[N+](C)(C)CCOP(C)(=O)O1` (stereo unspecified): the inhibition was inactive: 33.3%.

The inhibition is the relative decrease from the control value, in per cent.

The values are drawn from PubChem BioAssay AID651580 (Sanford-Burnham Center for Chemical Genomics, 2012).
